Entries after “also recorded” stand apart in the source; their conditions may differ.
What was measured:
[1] = test system: pSTAT3 under endogenous LIF stimulation in U-251 cells; assay: pSTAT3 inhibition under endogenous LIF in serum starved U-251 cells (Meso Scale Discovery); assay type: cell-based, human; conditions: GBM U251, Endogenous LIF Condition
Protocol: The U-251 cells were seeded at 600,000 cells per 6 cm plate (per condition). […] As a negative control of pSTAT3, the JAK I inhibitor (Calbiochem #420099) was used at 1 uM for 30 min at 37° C. Cells were then harvested on ice for lysates following the Meso Scale Discovery Multi-Spot Assay System Total STAT3 (Cat #K150SND-2) and Phospho-STAT3 (Tyr705) (Cat #K150SVD-2) kits' protocol, to measure protein levels detectable by the MSD Meso Sector S600.

[2] = test system: human U251 GBM cells; assay: Orthotopic GBM tumor model with luciferase expressing U251 cells in mice; assay type: in vivo, mouse; conditions: 200 μg or 300 μg twice a week, after 7 days of treatment
Protocol: Results of this study are shown in FIG. 7A (quantitation at day 26 post treatment).
U251 cells stably expressing luciferase were harvested, washed in PBS, centrifuged at 400 g for 5 min, resuspended in PBS and counted with an automated cell counter (Countess, Invitrogen). Cells were kept on ice to maintain optimal viability. Mice were anaesthetized with intraperitoneal administration of Ketamine (Ketolar50®)/Xylacine (Rompún®) (75 mg/kg and 10 mg/kg respectively). Each mouse was carefully placed in the stereotactic device and immobilized. Hair from the head was removed with depilatory cream, and the head skin was cut with a scalpel to expose the skull. A small incision was carefully made with a drill in the coordinates 1.8 mm lateral and 1 mm anterior to the Lambda. […]
Body weight and tumor volume: Body weight was measured 2 times/week and tumor growth was quantified by bioluminescence on day 7 (Xenogen IVIS Spectrum). To quantify bioluminescence activity in vivo, mice were anaesthetized using isofluorane, and injected intraperitoneally with luciferin substrate (PerkinElmer) (167 μg/kg).
Tumor size as determined by bioluminescence (Xenogen IVIS Spectrum) was evaluated at day 7. The individual tumor measurements and mean±SEM for each treatment group were calculated. Statistical significance was determined by the unpaired non-parametric Mann-Whitney U-test.

[3] = test system: KLN205 non-small cell lung cancer (NSCLC) cells; assay: Orthotopic syngeneic KLN205 non-small cell lung cancer mouse model; assay type: in vivo; conditions: 15 mg/kg or 30 mg/kg intraperitoneally twice a week, compared to vehicle
Protocol: To determine the ability of the humanized 5D8 clone to inhibit a LIF positive cancer in vivo this antibody was tested in a mouse model of non-small cell lung carcinoma (NSCLC).
The murine non-small cell lung cancer (NSCLC) cell line KLN205 with high LIF levels was stably infected with lentivirus expressing the firefly luciferase gene for in vivo bioluminescence monitoring. To develop the mouse model, 5×10^5 KLN205 non-small cell lung cancer (NSCLC) cells were orthotopically implanted into the left lung of 8-week-old immunocompetent syngeneic DBA/2 mice by intercostal puncture. […] For the bioluminescence imaging, mice received an intraperitoneal injection of 0.2 mL of 15 mg/mL D-luciferin under 1-2% inhaled isoflurane anesthesia. The bioluminescence signals were monitored using the IVIS system 2000 series (Xenogen Corp., Alameda, Calif., USA) consisting of a highly sensitive cooled CCD camera. Living Image software (Xenogen Corp.) was used to grid the imaging data and integrate the total bioluminescence signals in each boxed region. Data were analyzed using the total photon flux emission (photons/second) in the regions of interest (ROI). […] Data are presented as mean±SEM.

[4] = test system: CCL22 and CD206 (MRC1) expression; assay: Human organotypic tissue slice culture model, M2 macrophage markers; assay type: cell-based; conditions: three patient samples
[5] = test system: LIF-induced STAT3 phosphorylation at tyrosine 705; assay: Inhibition of LIF-induced STAT3 phosphorylation by western blot, 5D8 humanization panel; assay type: cell-based, human; conditions: U251 glioma cells, serum starved 8 hours, antibodies over night at 10 μg/ml
Protocol: Inhibition of LIF-induced STAT3 phosphorylation at tyrosine 705 was determined by western blot. U251 glioma cells were plated in 6-well plates at a density of 100.000 cells/well. Cells were cultured in complete medium for 24 hours before any treatment and after that, cells were serum starved for 8 hours. After that, cells with the indicated antibodies over night at a concentration of 10 μg/ml. After treatment, proteins were obtained in radio-immunoprecipitation assay (RIPA) lysis buffer containing phosphatase and protease inhibitors, quantified (BCA-protein assay, Thermo Fisher Scientific) and used in western blot. For western blot, membranes were blocked for 1 hour in 5% non-fat dried milk—TBST and incubated with the primary antibody overnight (p-STAT3, catalog #9145, Cell Signaling or STAT3, catalog #9132, Cell Signaling) or 30 minutes (β-actin-peroxidase, catalog #A3854, Sigma-Aldrich). Membranes were then washed with TBST, incubated with secondary and washed again. Proteins were detected by chemiluminescence (SuperSignal Substrate, catalog #34076, Thermo Fisher Scientific). The darker the pSTAT3 band the less inhibition is present.

[6] = test system: STAT3 phosphorylation (Tyr 705); assay: Inhibition of STAT3 phosphorylation (Tyr 705) in U251 glioma cells, humanized vs parental 5D8, western blot; assay type: cell-based, human; conditions: antibody over night at 10 μg/ml
Protocol: U251 glioma cells were plated in 6-well plates at a density of 150,000 cells/well. Cells were cultured in complete medium for 24 hours before any treatment.
After treatment, proteins were obtained in radio-immunoprecipitation assay (RIPA) lysis buffer containing phosphatase and protease inhibitors, quantified (BCA-protein assay, Thermo Fisher Scientific) and used in western blot. For western blot, membranes were blocked for 1 hour in 5% non-fatty milk—TBST and incubated with the primary antibody overnight (p-STAT3, catalog #9145, Cell Signaling or STAT3, catalog #9132, Cell Signaling) or 30 minutes (β-actin-peroxidase, catalog #A3854, Sigma-Aldrich). Membranes were then washed with TBST, incubated with secondary antibody if necessary, and washed again. Proteins were detected by chemiluminescence (SuperSignal Substrate, catalog #34076, Thermo Fisher Scientific).

[7] = test system: ID8 cells; assay: Ovarian orthotopic syngeneic tumor model ID8 in mice; assay type: in vivo; conditions: 200 μg/mouse and above, twice weekly
Protocol: ID8 cells were cultured in Dulbecco's Modified Eagle Medium (DMEM) (Gibco, Invitrogen), supplemented with 10% Fetal Bovine Serum (FBS) (Gibco, Invitrogen), 40 U/mL Penicillin and 40 μg/mL Streptomycin (PenStrep) (Gibco, Invitrogen) and 0.25 μg/mL Plasmocin (Invivogen).
The ID8 cells were harvested, washed in PBS, centrifuged at 400 g for 5 min and resuspended in PBS. Cells were kept on ice to maintain optimal viability and 200 μL of the cell suspension was injected intraperitoneally with a 27G needle. The final cell number implanted into mice was 5×10^6.
Body weights were measured 2 times/week and tumor progression was monitored by measuring abdominal girth using a caliper (Fisher Scientific).

IC90 ([1]; serum starvation (0.1% FBS), overnight): 4.1 nM
B1: h5D8: humanized 5D8 anti-LIF antibody comprising H2 and L2; C100 is the unsubstituted cysteine 100 reference in Table 9 (antibody)
heavy: QVQLQESGGGLVKPGGSLRLSCAASGFTFSHAWMHWVRQAPGKGLEWVGQIKAKSDDYATYYAESVKGRFTISRDDSKNTLYLQMNSLKTEDTAVYYCTCWEWDLDFWGQGTMVTVSSASTKGPSVFPLAPSSKSTSGGTAALGCLVKDYFPEPVTVSWNSGALTSGVHTFPAVLQSSGLYSLSSVVTVPSSSLGTQTYICNVNHKPSNTKVDKKV[left out - human IgG1 Fc]
light: DIVMTQTPLSSPVTLGQPASISCRSSQSLLDSDGHTYLNWLQQRPGQPPRLLIYSVSNLESGVPDRFSGSGAGTDFTLKISRVEAEDVGVYYCMQATHAPPYTFGQGTKLEIKRTVAAPSVFIFPPSDEQLKSGTASVVCLLNNFYPREAKVQWKVDNALQSGNSQESVTEQDSKDSTYSLSSTLTLSKADYEKHKVYACEVTHQGLSSPVTKSFNRGEC
JAK inhibition (%) Mean ([1]; JAK I inhibitor 1 uM as negative control of pSTAT3): 84%
tumor size by bioluminescence (FIG. 7B) [2]: statistically significant reduction in tumor
tumor growth by bioluminescence (FIG. 6) [3]: promote tumor regression
tumor growth by bioluminescence (FIG. 6) ([3]; listed as humanized 5D8): reduced tumor growth
CCL22 and CD206 (MRC1) expression (FIG. 10B) [4]: significant decrease
Inhibition of LIF-induced STAT3 phosphorylation, FIG. 1 lanes described in words [5]: high
inhibition of STAT3 phosphorylation (Tyr 705), humanized clone compared with parental (FIG. 2A) [6]: increased inhibition
tumor volume / tumor growth (FIG. 8C) [7]: reduced tumor volume; also recorded: significant reduction in tumor growth

— patent US11390670B2, “Antibodies against LIF and uses thereof” (MEDIMMUNE LIMITED, priority 2016, dated 2022)
